{"sequences": {"note": "Sequences of proteins named here, by UniProt entry; tags and fusion partners are left off. Residues count along the entry.", "UniProt P28335, 33-458": "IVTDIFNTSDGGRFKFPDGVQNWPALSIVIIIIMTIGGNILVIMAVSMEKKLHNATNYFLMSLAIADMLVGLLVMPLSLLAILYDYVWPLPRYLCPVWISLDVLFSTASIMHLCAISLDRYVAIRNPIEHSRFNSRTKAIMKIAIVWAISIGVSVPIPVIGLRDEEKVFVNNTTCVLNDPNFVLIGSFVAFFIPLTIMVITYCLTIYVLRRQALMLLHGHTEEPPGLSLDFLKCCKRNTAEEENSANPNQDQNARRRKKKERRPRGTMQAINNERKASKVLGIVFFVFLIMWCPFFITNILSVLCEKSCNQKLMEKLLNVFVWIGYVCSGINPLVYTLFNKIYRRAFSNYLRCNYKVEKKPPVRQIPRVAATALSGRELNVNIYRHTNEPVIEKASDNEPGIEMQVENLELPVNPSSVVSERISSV"}, "source": "patent US8586634B2", "about": "“Therapeutic compounds” (University of Florida Research Foundation, Inc., priority 2007, dated 2013)", "biological_target": "5HT2C receptors (Homo sapiens, UniProt P28335)", "test": "Radioligand saturation binding, CHO cell membranes", "settings": "Example 4", "description": "Representative curves are in FIGS. 2-4 and KD and Bmax summary in Table 3; values are consistent with literature (Knight et al., 2004)."}
{"substance": "[^3H]-mesulergine", "values": [{"measurement": "Kd", "result": "0.88 ± 0.03", "unit": "nM"}]}
